Target: T1, TRC40/RAMP4 complex (MBP-TRC40/HZZ-RAMP4op protein complex) (UniProt O43681 1-348; Q9Y6X1 1-66)
T1 construct: TRC40, wild type; as m1; RAMP4, tail-anchored substrate protein; also called TRC40-R4; TRC40wt/RAMP4; source: bacterial expression, co-expressed, purified (Ni-NTA, then amylose resin)
Assay: reflectometric interference spectroscopy (RIfS); canine rough microsomes spread with POPC liposomes on a silicon-SiO2 chip; protein added stepwise from 40 nM to 1 µM; Langmuir fit of the adsorption isotherm; average of three independent measurements
Conditions: one partner purified

B1: TRC40 membrane receptor complex (WRB/CAML) in canine rough microsomes (complex)
chain 1: MSGAEADRWAWLLVLSFVFGCNVLRILLPSFSSFMSRLLQKDAEQEAQMRAEIQDMKQELSTVNMMDEFARYARLERKINKMTDKLKTHVKARTAQLAKIKWVISVAFYILQAALMVSLIWKYYSVPVAVVPSKWITPLDRLVAFPTRVAGGVGITCWILVCNKVVAIVLHPFS
chain 2: MEPLTVASDSGDRPGAPATSGLSASQRRAELRRRKLLMNSEQRINRIMGFHRPGSGAEEESQTKSKQQDSDKLNSLSIPSVSKRVVLGDSVSIGTTDQQSGVAEVKGTQLGDKLDSFIKPPECSNDVNLELRQRNRGDLTADTVQRGSRHGLEQYLSRFEEAMKLRKQLISEKPNQEDGNTTEEFDSFRIFRLVGCALLAFGVRAFVCKYLSIFAPFLTLQLAYMGLYKYFPKGEKKIKTTVLTAALLLSGIPAEVINRSMDTYSKMGEVFTDLCVYFFTFIFCHELFNYWGSEVP
  Kd: 262 nM

Source: PMC3879356 (PLoS ONE, 2014)
